Experimental data as given in PubChem BioAssay AID488839 (Broad Institute, 2010).
Some of the results follow. Calls of active or inactive are those of the source.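 How the source made its calls: active means highest replicate inhibition of at least 50% and at least 75% of replicates reaching 50%; inconclusive means only one of the two criteria met; inactive means both criteria failed.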

The chains behind the UniProt entries cited, without tags or fusion partners. Where a name states a change or a piece, a line headed by the entry shows the natural chain unless it says otherwise.
UniProt Q00535, whole entry, looked up: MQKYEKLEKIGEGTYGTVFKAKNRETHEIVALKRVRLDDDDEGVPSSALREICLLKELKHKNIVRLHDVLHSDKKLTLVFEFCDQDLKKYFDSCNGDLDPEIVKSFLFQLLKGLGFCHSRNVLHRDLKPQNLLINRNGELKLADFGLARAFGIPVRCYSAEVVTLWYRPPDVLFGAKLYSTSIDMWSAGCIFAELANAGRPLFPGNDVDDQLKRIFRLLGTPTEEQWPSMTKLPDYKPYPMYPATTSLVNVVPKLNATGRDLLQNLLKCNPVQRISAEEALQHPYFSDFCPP
UniProt Q15078: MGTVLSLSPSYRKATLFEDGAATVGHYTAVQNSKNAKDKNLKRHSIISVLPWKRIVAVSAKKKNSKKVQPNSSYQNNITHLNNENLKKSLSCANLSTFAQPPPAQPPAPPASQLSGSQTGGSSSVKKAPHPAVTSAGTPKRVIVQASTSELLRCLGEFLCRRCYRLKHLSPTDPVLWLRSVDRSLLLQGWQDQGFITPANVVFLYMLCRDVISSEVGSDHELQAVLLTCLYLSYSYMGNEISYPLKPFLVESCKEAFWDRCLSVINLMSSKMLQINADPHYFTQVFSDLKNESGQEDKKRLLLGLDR

Each molecule was assayed against Cyclin-dependent kinase 5 (Homo sapiens) + Cyclin-dependent kinase 5 activator 1 (Homo sapiens) (UniProt Q00535+Q15078) (assay: inhibitors of human CDK5/p35 kinase, primary screen, biochemical, single concentration (AID 488839;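 further: plate controls were DMSO neutral control for no effect and GW8510 at 10 µM for full effect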)). Conditions: Recombinant CDK5/p35, ADP-Glo luminescence, 60 min; at 10 µM; active compounds read high.
For `CC(C)(C)C(=O)NC(Sc1ccncn1)C(Cl)(Cl)Cl` (stereo not given), the inhibition was inactive: -0.313%.
With `O=C(Nc1cc([As](=O)(O)O)ccc1O)c1ccccc1` the inhibition was inactive: -0.151%.
In the case of `O=P1(N(CCCl)CCCl)OCCCS1` (stereo not given), the inhibition is reported as inactive: 0.609%.
For `CC1CCN(C(=O)Oc2c(Cl)cc(Cl)c3cccnc23)CC1`, the inhibition was inactive: -0.958%.
`CN(C)C(=O)OCCc1n(C)cc[n+]1C` was tested, and the inhibition was inactive: -4.16%.
With `CC(C)=N/N=C(\N)N[N+](=O)[O-]` the inhibition was inactive: 2%.
`CCN(/C(=N/P(=O)(N1CCOCC1)N1CCOCC1)N1CCOCC1)c1ccc(OC)cc1` was tested, and the inhibition was inactive: -0.262%.
In the case of `C[N+]1=C2C=CC=CC=C2SC12C([N+](=O)[O-])=CC([N+](=O)[O-])=C[C-]2[N+](=O)[O-]` (stereo not given), the inhibition is reported as inactive: 0.644%.
In the case of `Nc1ccc([As](=O)(O)c2ccc(N)cc2)cc1`, the inhibition is reported as inactive: -1.14%.
In the case of `CCc1nc2c(n1)c1c(non1O)c1c2no[n+]1[O-]`, the inhibition is reported as inactive: 0.788%.
In the case of `O=[N+]([O-])c1cc([N+](=O)[O-])c(CCNc2ccccc2)c([N+](=O)[O-])c1`, the inhibition is reported as inactive: 0.0262%.
With `Cc1ccc(NP(=O)(Oc2ccccc2)Oc2ccccc2)nc1` the inhibition was inactive: -0.879%.
`O=[N+]([O-])c1cccc2n[nH]nc12` was tested, and the inhibition was inactive: -0.115%.
With `CC(=O)N1C2C3N(C(C)=O)C1C1N(C(C)=O)C(C(N1C(C)=O)N3C(C)=O)N2C(C)=O` the inhibition was inactive: 0.168%.
For `COc1ccc(C2=NCC(CBr)S2)cc1` (stereo not given), the inhibition was inactive: -0.913%.
In the case of `O=C(NC(Sc1ccncn1)C(Cl)(Cl)Cl)c1ccccc1` (stereo not given), the inhibition is reported as inactive: 1.19%.
`Oc1ccccc1CNc1ccccn1` was tested, and the inhibition was inactive: 0.966%.
With `Nc1cc(N)c2nonc2c1[N+](=O)[O-]` the inhibition was inactive: 1.38%.
With `CC(C)CC(=O)NC(Sc1ccc(Cl)cc1)C(Cl)(Cl)Cl` (stereo not given) the inhibition was inactive: 2.26%.
`CN1CCCC(OC(=O)C(c2ccccc2)c2ccccc2)C1` (stereo not given) was tested, and the inhibition was inactive: -5.25%.
With `Clc1ccc(Cl)c(NC2=NCC(CBr)S2)c1` (stereo not given) the inhibition was inactive: -1.01%.
With `COc1ccccc1OP(=O)(Nc1ccc(C)cn1)Oc1ccccc1OC` the inhibition was inactive: 1.61%.
`Cc1ccc(N/C(=N/P(=O)(N2CCOCC2)N2CCOCC2)N2CCOCC2)cc1` was tested, and the inhibition was inactive: -8.74%.
With `CN(C(=O)Cc1ccc(Cl)c(Cl)c1)[C@H]1CCCC[C@H]1N1CCCC1` the inhibition was inactive: -1.31%.
For `NC(=O)c1cc([N+](=O)[O-])cc([N+](=O)[O-])c1N`, the inhibition was inactive: 3.85%.
For `Nc1cccc2ccc([As](=O)(O)O)cc12`, the inhibition was inactive: -3.32%.
In the case of `CCN(N=Nc1nonc1N)c1nonc1N`, the inhibition is reported as inactive: 0.588%.
In the case of `Cc1ccc(NP(=O)(Oc2ccccc2F)Oc2ccccc2F)nc1`, the inhibition is reported as inactive: -0.415%.
For `CN(C(=O)Cc1ccc(Cl)c(Cl)c1)[C@H]1CCCC[C@@H]1N1CCCC1`, the inhibition was inactive: -0.00433%.
With `Cc1cc(SC(NC(=O)c2ccc(F)cc2)C(Cl)(Cl)Cl)ncn1` (stereo not given) the inhibition was inactive: 0.15%.
`CCOP(=O)(Nc1ccccc1)OCC` was tested, and the inhibition was inactive: 0.465%.
For `O=P(Nc1nc2ccc(Cl)cc2s1)(c1ccccc1)c1ccccc1`, the inhibition was inactive: 1.32%.
With `CCCC1OP(N)(=O)OCC1CC` (stereo not given) the inhibition was inactive: -1.93%.
With `CC(=O)Nc1ccc([As](=O)(O)O)cc1` the inhibition was inactive: -3.6%.
`O=C(O)c1ccccc1[As](=O)(O)O` was tested, and the inhibition was inactive: -1.57%.
